Read-outs that look alike come from different tables or passages of the source.
Test system: mouse
Settings: intravenous
Description: Butyric acid was dissolved in water to form an 8 M solution. 0.5 mL of the 8 M solution of butyric acid was injected subcutaneously (at the back of the neck) into the mouse.
3-hydroxybutyric acid was dissolved in water to form 1 M, 1.5 M, and 2 M solutions. 0.2 mL of a 1.5 M solution of 3-hydroxybutyric acid was injected into a tail vein of a CD-1 mouse. […] This was repeated for at least 2 more times on subsequent days.
Ethylmalonic acid was dissolved in water to form 2 M, 3 M, and 4 M solutions. 0.2 mL of a 3 M solution of ethylmalonic acid was injected into a tail vein of a mouse. […] This was repeated for at least 2 more times on subsequent days.
Ethylmalonic acid was dissolved in water to form a 4 M solution. 0.5 mL of the 4 M solution of ethylmalonic acid was injected subcutaneously into the mouse.

## ethyl isovaleric acid
250 mM solution in intralipid
  Lethality to the animals: lethal
1M solution in intralipid
  Lethality to the animals: lethal

— patent US20200375958A1, “MEMBRANE ACTIVE MOLECULES” (priority 2017, published 2020)
